Results published in patent publication US20180030537A1, “PUMA, A PRO-APOPTOTIC GENE, AS A NOVEL MOLECULAR BIOMARKER FOR TNFALPHA-INDUCED HUMAN ISLET DAMAGE” (CITY OF HOPE, priority 2010, published 2018).

Columns and labels:
Format in all cases: cell-based
human islets [1] = assay: β cell apoptosis by TUNEL/insulin staining and Laser Scanning Cytometry; settings: 24-hour culture, TNF-α 50 ng/mL with or without IFN-γ 1000 U/mL; FIG. 11B, 11C
Description: FIGS. 11A-H. TNF-α induces apoptosis through mitochondrial pathway in human islets. Silencing PUMA prevented cell death induced by TNF-α and IFNγ stimulation in INS-1 cells. FIG. 11A) The activation of Caspase-8, Caspase-9 and Caspase-3 was examined in islets cultured with or without TNF-α (5 and 50 ng/ml) and/or IFNγ (1000 U/ml) for 24 hours by western blot. […] Paraffin sections from human islets cultured for 24 hours with or without TNF-α (50 ng/ml) (FIG. 11B) or the combination of TNF-α (50 ng/ml) and IFNγ (1000 U/ml) (FIG. 11C) were stained for TUNEL and insulin to identify apoptotic β cells, quantified using Laser Scanning Cytometry. The percentage of apoptotic β cells was calculated by dividing the TUNEL-insulin double-positive cell number by the total number of insulin-positive cells in each section (n=3, * p<0.05). β cell apoptosis was induced by TNF-α and IFNγ through activation of Caspase-9 and Caspase-3. β cell apoptosis was not detected by TUNEL staining when stimulated by TNF-α alone. However TNF induced islet apoptosis was confirmed by the increased expression of cleaved Caspase-9 and Caspase-3. […] FIG. 11D) Percentage of dead cells assessed by % DAPI positive cells (*p<0.01, n=3). […] FIG. 11E) Mitochondrial membrane permeability is assessed by TMRE staining (**p<0.005, n=3). […]

human islets [2] = assay: Western blot of Caspase-8, Caspase-9 and Caspase-3 activation in human islets; settings: TNF-α 5 and 50 ng/ml and/or IFNγ 1000 U/ml, 24 hours; FIG. 11A
Description: FIGS. 11A-H. TNF-α induces apoptosis through mitochondrial pathway in human islets. Silencing PUMA prevented cell death induced by TNF-α and IFNγ stimulation in INS-1 cells. FIG. 11A) The activation of Caspase-8, Caspase-9 and Caspase-3 was examined in islets cultured with or without TNF-α (5 and 50 ng/ml) and/or IFNγ (1000 U/ml) for 24 hours by western blot. […] Paraffin sections from human islets cultured for 24 hours with or without TNF-α (50 ng/ml) (FIG. 11B) or the combination of TNF-α (50 ng/ml) and IFNγ (1000 U/ml) (FIG. 11C) were stained for TUNEL and insulin to identify apoptotic β cells, quantified using Laser Scanning Cytometry. The percentage of apoptotic β cells was calculated by dividing the TUNEL-insulin double-positive cell number by the total number of insulin-positive cells in each section (n=3, * p<0.05). β cell apoptosis was induced by TNF-α and IFNγ through activation of Caspase-9 and Caspase-3. β cell apoptosis was not detected by TUNEL staining when stimulated by TNF-α alone. However TNF induced islet apoptosis was confirmed by the increased expression of cleaved Caspase-9 and Caspase-3. PUMA siRNA or Control siRNA was transfected into INS-1 cells 48 hours before cytokine stimulation, and cultured an additional 48 hours before flow cytometric analysis. FIG. 11D) Percentage of dead cells assessed by % DAPI positive cells (*p<0.01, n=3). DAPI (4′,6-diamidino-2-phenylindole) is a fluorescent stain that binds to DNA. FIG. 11E) Mitochondrial membrane permeability is assessed by TMRE staining (**p<0.005, n=3). All data are presented as a mean±standard error. […] Representative data from 3 independent experiments. Silencing PUMA protected β cell from death and loss of mitochondrial membrane potential in INS-1 cells induced by TNF-α and IFNγ. […]
To examine whether islet apoptosis induced by such treatments is regulated by the extrinsic or intrinsic pathway, Caspase-8, Caspase-9 and Caspase-3 activation was determined in treated islets by western blot analysis. […]

human whole blood = assay: TNF-α stimulation of heparinized human whole blood, mRNA quantification; settings: 4 hours, FIG. 9
Description: FIG. 9. Since isolated islets are not totally free of blood, PUMA and IL-8 expressed in human islets by TNF-α stimulation may derive from cells circulating in blood. However, PUMA is not induced by TNF-α in human whole blood. TNF-α (2, 20, 200 ng/ml) was mixed with heparinized whole blood and incubated at 37° C. for 4 hours. Various mRNA were quantified using the method descried previously (44). >20 ng/ml TNF-α induced both IL-8 and endogenous TNF mRNA but at lower levels. PUMA mRNA was not induced by TNF-α even with the highest dose (200 ng/mL) used with islet experiments.
Pancreatic tissues, including islets and acinar cells, are known to contain passenger leukocytes, which may be the source of the PUMA, IL-8 and TNF expression detected above.

Q: How did the “β cell apoptosis (TUNEL-insulin double-positive cells)” value (human islets [1]) turn out when “TNF-α: recombinant human (or rat, for INS-1) TNF-α, R&D Systems; cytokine stimulus” was run?
A: Its value is “did not induce β cell apoptosis”.

Q: What about the “Caspase-3 activation (western blot)” value (human islets [2]) of the same substance?
A: The value was “induced”.

Q: What about the “Caspase-8 activation (western blot)” value (human islets [2]) of the same substance?
A: Its value is “not activated”.

Q: And the “Caspase-9 activation (western blot)” value (human islets [2])?
A: Its value is “induced”.

Q: What about the “IL-8 mRNA in blood leukocytes” value (human whole blood; 2, 20, 200 ng/ml) of the same substance?
A: Its value is “did express a high level of IL-8”.

Q: What about the “PUMA mRNA in blood leukocytes” value (human whole blood; up to 200 ng/mL, 37° C.) of the same substance?
A: The value was “did not induce PUMA”.
